pIC50: −log10 of the molar value.
Experiments:
Experiment in all cases: ADP-Glo cell-free PI3K kinase activity assay
[1] = molecular target: PI3Kδ (Homo sapiens, UniProt O00329); conditions: read-out: Cell-free inhibitory IC50 PI3Kδ; ATP 25 μM; average of triple tests
[2] = molecular target: PI3Kα (Homo sapiens, UniProt P42336); conditions: read-out: Cell-free inhibitory IC50 PI3Kα; ATP 25 μM; average of triple tests
[3] = molecular target: PI3Kβ (Homo sapiens, UniProt P42338); conditions: read-out: Cell-free inhibitory IC50 PI3Kβ; ATP 25 μM; average of triple tests
[4] = molecular target: PI3Kγ (Homo sapiens, UniProt P48736); conditions: read-out: Cell-free inhibitory IC50 PI3Kγ; ATP 25 μM; average of triple tests

Amino acid sequences for entries named in this document (tags omitted). A change or cut given only in a name is not applied to a line headed by its entry.
UniProt O00329, whole entry: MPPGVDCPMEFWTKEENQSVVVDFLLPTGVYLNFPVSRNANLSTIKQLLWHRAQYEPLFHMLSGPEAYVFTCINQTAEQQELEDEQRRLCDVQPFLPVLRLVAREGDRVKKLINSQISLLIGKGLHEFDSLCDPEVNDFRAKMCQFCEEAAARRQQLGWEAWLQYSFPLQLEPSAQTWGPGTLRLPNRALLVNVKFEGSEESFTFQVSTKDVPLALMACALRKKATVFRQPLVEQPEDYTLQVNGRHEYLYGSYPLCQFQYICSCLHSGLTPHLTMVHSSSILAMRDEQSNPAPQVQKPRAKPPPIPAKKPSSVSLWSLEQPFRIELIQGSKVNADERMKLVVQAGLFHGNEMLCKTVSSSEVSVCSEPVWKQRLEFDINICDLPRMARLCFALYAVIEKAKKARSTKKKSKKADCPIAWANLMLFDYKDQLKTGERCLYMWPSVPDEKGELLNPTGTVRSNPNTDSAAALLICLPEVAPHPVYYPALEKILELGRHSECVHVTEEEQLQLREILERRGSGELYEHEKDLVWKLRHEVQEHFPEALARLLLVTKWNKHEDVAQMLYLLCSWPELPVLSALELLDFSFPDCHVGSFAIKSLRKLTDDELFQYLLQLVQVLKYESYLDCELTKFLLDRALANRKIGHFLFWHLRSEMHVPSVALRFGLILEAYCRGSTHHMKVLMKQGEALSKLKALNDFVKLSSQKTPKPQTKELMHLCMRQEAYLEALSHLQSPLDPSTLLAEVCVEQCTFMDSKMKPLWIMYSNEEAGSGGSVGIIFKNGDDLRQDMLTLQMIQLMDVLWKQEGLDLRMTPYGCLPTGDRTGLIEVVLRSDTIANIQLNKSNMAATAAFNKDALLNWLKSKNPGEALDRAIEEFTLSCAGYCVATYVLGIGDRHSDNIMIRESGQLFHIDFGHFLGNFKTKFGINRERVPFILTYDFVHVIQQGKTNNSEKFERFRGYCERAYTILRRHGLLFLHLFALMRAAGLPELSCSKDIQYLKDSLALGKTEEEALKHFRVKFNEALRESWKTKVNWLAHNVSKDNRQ
UniProt P42336, whole entry: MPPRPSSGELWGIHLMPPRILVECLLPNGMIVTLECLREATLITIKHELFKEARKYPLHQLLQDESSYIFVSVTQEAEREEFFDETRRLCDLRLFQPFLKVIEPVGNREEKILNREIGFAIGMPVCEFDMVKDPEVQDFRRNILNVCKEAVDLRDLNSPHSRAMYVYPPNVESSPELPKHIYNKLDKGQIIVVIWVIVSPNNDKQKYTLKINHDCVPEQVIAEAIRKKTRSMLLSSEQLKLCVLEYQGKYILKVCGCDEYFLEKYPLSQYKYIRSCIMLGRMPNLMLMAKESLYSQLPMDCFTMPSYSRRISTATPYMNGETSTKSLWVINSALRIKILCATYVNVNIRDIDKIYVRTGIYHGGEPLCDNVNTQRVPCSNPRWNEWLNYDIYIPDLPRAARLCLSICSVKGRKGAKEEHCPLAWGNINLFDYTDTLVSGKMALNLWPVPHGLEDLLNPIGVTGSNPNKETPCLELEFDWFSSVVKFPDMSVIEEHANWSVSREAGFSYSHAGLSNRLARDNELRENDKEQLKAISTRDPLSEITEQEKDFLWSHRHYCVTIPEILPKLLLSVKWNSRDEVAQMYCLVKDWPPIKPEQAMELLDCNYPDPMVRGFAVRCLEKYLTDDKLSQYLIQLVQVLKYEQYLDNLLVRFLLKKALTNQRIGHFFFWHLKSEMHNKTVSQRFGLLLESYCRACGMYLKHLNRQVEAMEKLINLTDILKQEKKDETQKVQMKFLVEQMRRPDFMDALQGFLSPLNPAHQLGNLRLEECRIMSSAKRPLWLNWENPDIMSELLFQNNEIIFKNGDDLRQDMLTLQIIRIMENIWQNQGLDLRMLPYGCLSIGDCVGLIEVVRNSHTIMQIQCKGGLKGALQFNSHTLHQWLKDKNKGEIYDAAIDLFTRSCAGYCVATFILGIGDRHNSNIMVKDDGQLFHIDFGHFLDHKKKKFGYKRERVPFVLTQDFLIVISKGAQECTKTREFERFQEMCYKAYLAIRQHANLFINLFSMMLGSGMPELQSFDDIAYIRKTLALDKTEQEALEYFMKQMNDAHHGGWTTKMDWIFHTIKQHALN
UniProt P42338, whole entry: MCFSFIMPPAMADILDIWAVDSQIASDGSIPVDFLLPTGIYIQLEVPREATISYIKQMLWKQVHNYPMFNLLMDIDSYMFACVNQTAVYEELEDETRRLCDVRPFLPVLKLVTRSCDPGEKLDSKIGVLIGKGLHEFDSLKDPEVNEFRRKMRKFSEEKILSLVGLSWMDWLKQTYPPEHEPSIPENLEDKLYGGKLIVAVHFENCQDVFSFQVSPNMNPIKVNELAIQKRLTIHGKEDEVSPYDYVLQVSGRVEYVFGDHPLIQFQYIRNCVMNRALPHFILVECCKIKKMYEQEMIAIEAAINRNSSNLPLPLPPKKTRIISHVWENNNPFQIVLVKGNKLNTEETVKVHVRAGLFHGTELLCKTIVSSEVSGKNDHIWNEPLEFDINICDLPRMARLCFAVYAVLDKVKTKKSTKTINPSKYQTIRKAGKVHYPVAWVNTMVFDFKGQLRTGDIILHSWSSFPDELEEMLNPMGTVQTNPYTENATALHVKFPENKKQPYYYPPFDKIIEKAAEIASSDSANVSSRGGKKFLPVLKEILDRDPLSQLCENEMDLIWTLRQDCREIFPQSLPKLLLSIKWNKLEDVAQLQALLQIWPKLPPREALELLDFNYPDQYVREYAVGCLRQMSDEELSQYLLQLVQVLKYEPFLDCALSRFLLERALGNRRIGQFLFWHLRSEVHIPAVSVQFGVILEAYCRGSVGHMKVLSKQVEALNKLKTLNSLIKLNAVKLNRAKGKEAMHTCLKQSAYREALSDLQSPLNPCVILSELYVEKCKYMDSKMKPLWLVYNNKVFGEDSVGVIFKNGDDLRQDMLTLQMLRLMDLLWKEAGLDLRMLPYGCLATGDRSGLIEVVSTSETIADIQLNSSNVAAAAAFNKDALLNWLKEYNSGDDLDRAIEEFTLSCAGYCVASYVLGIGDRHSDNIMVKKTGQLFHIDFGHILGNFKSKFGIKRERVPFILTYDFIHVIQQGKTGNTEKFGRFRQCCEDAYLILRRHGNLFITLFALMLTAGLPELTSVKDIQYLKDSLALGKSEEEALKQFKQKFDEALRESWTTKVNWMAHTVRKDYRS
UniProt P48736, whole entry: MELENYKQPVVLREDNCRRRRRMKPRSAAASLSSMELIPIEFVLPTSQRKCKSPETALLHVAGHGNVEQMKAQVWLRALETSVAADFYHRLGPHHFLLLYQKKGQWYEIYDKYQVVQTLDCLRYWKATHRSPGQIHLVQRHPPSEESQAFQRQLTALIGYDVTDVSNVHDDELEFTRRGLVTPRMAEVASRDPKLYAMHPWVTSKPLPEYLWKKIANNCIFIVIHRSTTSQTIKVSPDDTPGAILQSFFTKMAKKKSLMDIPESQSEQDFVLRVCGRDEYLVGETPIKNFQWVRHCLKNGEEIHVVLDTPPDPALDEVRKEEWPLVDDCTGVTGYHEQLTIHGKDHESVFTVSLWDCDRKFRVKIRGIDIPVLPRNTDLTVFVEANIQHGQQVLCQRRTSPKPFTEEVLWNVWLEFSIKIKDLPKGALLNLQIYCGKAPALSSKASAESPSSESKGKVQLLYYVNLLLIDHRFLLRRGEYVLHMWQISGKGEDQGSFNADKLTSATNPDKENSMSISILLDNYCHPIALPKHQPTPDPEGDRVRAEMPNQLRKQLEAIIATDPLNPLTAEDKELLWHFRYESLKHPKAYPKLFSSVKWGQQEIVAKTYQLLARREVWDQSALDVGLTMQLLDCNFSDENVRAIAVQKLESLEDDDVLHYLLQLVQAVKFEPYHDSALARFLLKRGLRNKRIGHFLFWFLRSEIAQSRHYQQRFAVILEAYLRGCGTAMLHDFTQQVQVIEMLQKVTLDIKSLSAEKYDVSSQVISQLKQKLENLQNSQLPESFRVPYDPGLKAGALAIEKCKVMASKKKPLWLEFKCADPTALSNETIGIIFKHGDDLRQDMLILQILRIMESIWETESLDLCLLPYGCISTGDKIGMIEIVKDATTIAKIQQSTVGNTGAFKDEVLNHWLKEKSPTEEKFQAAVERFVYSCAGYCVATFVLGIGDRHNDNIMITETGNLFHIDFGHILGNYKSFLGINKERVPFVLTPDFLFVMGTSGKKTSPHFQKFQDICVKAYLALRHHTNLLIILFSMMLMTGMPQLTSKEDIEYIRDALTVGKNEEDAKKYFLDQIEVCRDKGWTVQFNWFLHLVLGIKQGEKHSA
UniProt P27986, whole entry partner: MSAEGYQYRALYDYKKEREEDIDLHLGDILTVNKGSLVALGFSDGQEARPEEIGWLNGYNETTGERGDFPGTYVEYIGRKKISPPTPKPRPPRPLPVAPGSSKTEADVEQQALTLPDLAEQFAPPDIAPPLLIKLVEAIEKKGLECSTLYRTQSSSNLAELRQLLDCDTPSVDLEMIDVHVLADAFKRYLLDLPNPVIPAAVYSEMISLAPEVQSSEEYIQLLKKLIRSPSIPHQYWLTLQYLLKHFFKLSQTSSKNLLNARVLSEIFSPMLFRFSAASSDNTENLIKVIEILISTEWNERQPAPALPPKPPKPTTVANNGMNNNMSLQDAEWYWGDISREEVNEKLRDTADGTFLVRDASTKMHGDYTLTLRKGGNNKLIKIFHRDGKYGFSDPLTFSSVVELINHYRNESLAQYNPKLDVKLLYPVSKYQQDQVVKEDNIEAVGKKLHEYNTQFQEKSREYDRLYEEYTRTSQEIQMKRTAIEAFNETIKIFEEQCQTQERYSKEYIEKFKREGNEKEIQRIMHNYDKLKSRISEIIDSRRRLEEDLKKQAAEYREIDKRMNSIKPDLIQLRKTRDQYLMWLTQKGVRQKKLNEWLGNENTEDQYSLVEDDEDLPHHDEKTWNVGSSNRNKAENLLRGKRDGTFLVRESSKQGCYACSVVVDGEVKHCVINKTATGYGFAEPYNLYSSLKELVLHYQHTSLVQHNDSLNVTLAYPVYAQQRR

## CC(=O)c1ccc2c(c1)c1cc(C(C)=O)ccc1n2C
[1]
  pIC50: < 4.70
[2]
  pIC50: 4.95
[3]
  pIC50: < 4.70
[4]
  pIC50: 5.13

Reference: PMC8800018, “Discovery of novel selective PI3Kγ inhibitors through combining machine learning-based virtual screening with multiple protein structures and bio-evaluation” (Journal of Advanced Research, 2021)
